The source of these data is PMC4585971, “Functional Analyses of the Toxoplasma gondii DNA Gyrase Holoenzyme: A Janus Topoisomerase with Supercoiling and Decatenation Abilities” (Scientific Reports, 2015).

The test has as its target T1, TgGyrB (TgGyr holoenzyme) (Toxoplasma gondii, UniProt A0A7J6KFP0).
T1 construct: gene TGRH88_002560
The test can be described thus: biochemical.

A word on the IC50: it is the concentration needed to halve the response being measured. Read a high IC50 as lower potency. For the compound `CO[C@@H]1[C@@H](OC(N)=O)[C@@H](O)[C@H](Oc2ccc3c(O)c(NC(=O)c4ccc(O)c(CC=C(C)C)c4)c(=O)oc3c2C)OC1(C)C` [novobiocin], the IC50 was ~300 nM.
